Results taken from patent US20190195880A1, “METHODS AND KITS FOR PREDICTING THE SENSITIVITY OF A SUBJECT SUFFERING OF RENAL CANCER TO CANCER TREATMENT” (CENTRE NATIONAL DE LA RECHERCHE SCIENTIFIQUE (CNRS), priority 2016, published 2019).

System: metastatic ccRCC
Settings: patients with CXCL5 plasmatic levels above 0.1 ng/ml; p=0.04

For CCN(CC)CCNC(=O)c1c(C)[nH]c(/C=C2\C(=O)Nc3ccc(F)cc32)c1C [sunitinib], the “median PFS” value was 27 months.
